Assay outcomes: PubChem, Broad Institute
UUG fidelity: alters start codon recognition fidelity in yeast; AID 602363; activity score, % at 18.7 µM; 350,000 tested, 0.13% active; S. cerevisiae UUG-firefly luciferase reporter, luminescence/redox ratio;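 active means replicate mean at a twofold rise or more, about +100% in these data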;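 further: firefly luciferase made from a UUG start codon reports start codon fidelity; reporter light over untreated wells divided by growth signal over untreated wells; some hits fall short of that in this replicate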
PglD DTNB: inhibitors of Campylobacter jejuni PglD acetyltransferase; purified PglD enzyme, DTNB colorimetric CoA detection; 0.098% of 360,000 active; inhibition, % at 12.5 µM; in the data active = inhibition above about 16%, passing the limit was not always enough; inconclusive = no clear call, values can overlap the other calls
ARNT TACC3 PPI: ARNT/TACC3 interaction disruption | 0.66% of 390,000 active | inhibition, % at 9.99 µM | Q9Y6A5 | AlphaScreen His-ARNT PAS-B/GST-TACC3 binding, luminescence; TACC3 fragment carries E629A point mutation;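 active = mean inhibition of replicates at least 50% and at least half of replicates each reaching 50%; inconclusive = half or more replicates reach 50% but mean below 50%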
FGF22 binding: shifts melting point of recombinant human FGF22. Q9HCT0. recombinant FGF22 thermal shift, SYPRO orange fluorescence; percent of sucrose octasulfate shift, DMSO zero. activity (Tm shift, normalised), % at 9.99 µM. 1.5% of 340,000 active. AID 651658;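 active = mean Tm shift, scaled 0 neutral to 100 positive control, at about 1.3% or above, every replicate too, limit read from the data; inconclusive = no clear call, values can overlap the other calls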
PDI inh: blocks human protein disulfide isomerase activity. P07237. PDI insulin aggregation turbidity, A650, 90 min. inhibition, % at 10 µM. 0.052% of 350,000 active. AID 588391;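 active = mean inhibition across replicates of 30% or more, whatever share of single replicates reach that level; inconclusive = mean inhibition below 30% while every single replicate reaches 30%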
ERp5 inh: blocks human ERp5 reductase activity on insulin; ERp5 insulin aggregation, absorbance 650 nm, 90 min; 0.05% of 350,000 active; AID 651711; inhibition, % at 9.99 µM;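 active = mean replicate inhibition above about 25%, with every replicate also reaching it, limit read from the data, passing the limit was not always enough; inconclusive = only one of those two criteria met; inactive = neither criterion met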
A number is an active result; – = inactive; ? = inconclusive; · = not tested or not shown; ! = repeats disagree. Most compounds without a hit are left out; they make up all but 1.9% or so of the library.

SMILES	UUG fidelity	PglD DTNB	ARNT TACC3 PPI	FGF22 binding	PDI inh	ERp5 inh
Cc1ccc(S(=O)(=O)N(C)C[C@@H]2Oc3ccc(NC(=O)Cn4cnnn4)cc3C(=O)N([C@@H](C)CO)C[C@H]2C)cc1	–	–	active!	–	–	–
Cc1ccc(S(=O)(=O)N(C)C[C@@H]2Oc3ccc(NC(=O)Nc4ccc(C(F)(F)F)cc4)cc3C(=O)N([C@H](C)CO)C[C@@H]2C)cc1	–	–	–	–	·	–
Cc1ccc(S(=O)(=O)N(C)C[C@@H]2Oc3ccc(NC(=O)Nc4ccc(C(F)(F)F)cc4)cc3C(=O)N([C@@H](C)CO)C[C@@H]2C)cc1	–	–	–	2.8	·	–
Cc1ccc(S(=O)(=O)N(C)C[C@H]2Oc3ccc(NC(=O)Cn4cnnn4)cc3C(=O)N([C@@H](C)CO)C[C@@H]2C)cc1	·	·	·	–	·	–
O=C(Nc1ccc2c(c1)[C@@H]1C[C@H](CC(=O)N3CCc4ccccc4C3)O[C@H](CO)[C@@H]1O2)C1CCOCC1	·	–	–	–	·	–
C[C@H]1CN([C@@H](C)CO)C(=O)c2cc(C#CC3CCCCC3)cnc2O[C@@H]1CN(C)C(=O)C1CCCCC1	–	–	–	–	·	–
O=Cc1ccc(-n2cc(C=O)c3ccccc32)cc1	·	·	–	43	–	–
C1CCCC(N2CCNCC2)CC1	–	–	–	·	–	·
CC1CCC(N2CCNCC2)CC1 (stereo not given)	·	·	–	44	–	–
COc1ccc(Oc2ccc(/C=C/C(=O)c3ccc(O)cc3)cc2[N+](=O)[O-])cc1	·	·	–	–	99	–
COc1ccc(NC(=O)Nc2cccc3c2O[C@H](CN(C)Cc2ccc(C(=O)Nc4ccccc4N)cc2)[C@@H](C)CN([C@@H](C)CO)C3=O)cc1	–	–	–	–	·	–
O=C(NC1CCCC1)[C@@H]1[C@@H](CO)[C@@H]2Cn3c(ccc(-c4cccnc4)c3=O)[C@H]1N2CC1CC1	·	–	·	–	·	28
Cc1nnc(Nc2ccc(F)cc2)c2ccccc12	–	–	–	–	–	–
Cc1nnc(Nc2ccccn2)c2ccccc12	·	·	33	·	–	·
COc1cc(N(C)C)ccc1C=c1c2ccccc2n2c1cc(-c1ccccc1)[n+]2C	·	·	41	–	?	–
COc1ccc(NC(=O)Nc2cnccn2)cc1	–	–	–	–	–	–
CCOc1ccc(NC(=O)Nc2ccc(NC(C)=O)cc2)cc1	·	·	–	–	–	–
CCOc1ccc(NC(=O)Nc2cnccn2)cc1	·	·	–	43	–	–
CCOc1ccc(NC(=O)NC(C)CC)cc1 (stereo not given)	–	–	–	43	–	–
CC=Cc1ccc2n(c1=O)C[C@H]1[C@H](CO)[C@@H](C(=O)NCCc3ccncc3)N(CCC(F)(F)F)[C@@H]21 (mixture of isomers)	·	–	–	–	·	–
NC(=S)Nc1ncc(C(F)(F)F)cc1Cl	·	·	–	43	–	–
CCN1CCN(CCCNC(=O)CCc2nc(-c3ccc(OC)cc3)no2)CC1	–	–	–	43	–	–
COc1ccc(-c2noc(CCC(=O)NCCCN3CCC(C)CC3)n2)cc1	–	–	–	·	–	·
CO[C@H]1CN(C)C(=O)c2cc(NC(=O)NC3CCCC3)ccc2OC[C@@H](C)NC[C@@H]1C	·	·	·	·	·	–
Cc1cccc(S(=O)(=O)N2C[C@H]3[C@@H](c4ccccc42)[C@H](CO)N3Cc2ccccn2)c1	–	–	20	–	·	–
SMILES	UUG fidelity	PglD DTNB	ARNT TACC3 PPI	FGF22 binding	PDI inh	ERp5 inh
COC(=O)c1ccccc1-c1ccc(C=O)o1	·	·	–	·	–	–
COC(=O)c1ccccc1-c1ccc(/C=N/NC(N)=O)o1	–	–	–	2.9	–	–
O=C(NCCOc1ccccc1)C1CCCCC1	–	–	–	43	–	–
Oc1cccc(NC(=S)N=Nc2c(O)[nH]c3ccccc23)c1	–	–	54	–	–	–
Oc1[nH]c2ccccc2c1N=NC(=S)N1CCOCC1	–	–	66	·	–	·
Oc1[nH]c2ccc(Br)cc2c1N=NC(=S)N1CCOCC1	–	–	66	–	–	–
CC(C)CC(=O)NC(=S)Nc1cccc(NC(=O)c2ccccc2)c1	–	–	–	–	–	–
Cc1cc(NC(=S)NC(=O)CC(C)C)ccc1Br	–	–	–	35	–	–
C[C@@H]1CCCCO[C@H](CN(C)CC2CC2)[C@@H](C)CN([C@H](C)CO)C(=O)c2cc(NC(=O)CCC(F)(F)F)ccc2O1	·	·	·	–	·	–
